Source: US20230159537A1, “COMPOUND, PREPARATION METHOD THEREOF, AND USE THEREOF IN PREPARATION OF ANTI-CANCER DRUG” (TIANJIN JIKUN MEDICAL TECHNOLOGY CO., LTD., priority 2020, published 2023)
“Also recorded” adds a separate entry of the source.

Legend:
[1] = tested on: FGFR2 and downstream signaling pathway in SNU-16 cells
[2] = tested on: FGFR1 and downstream signaling pathway in NCI-H1581 cells; assay: Western blot of FGFR1 and downstream signaling protein phosphorylation in NCI-H1581 cells; type: cell-based, human; settings: 12 h

With `COc1cc(OC)cc(-c2nn(CCCCCN3CCN(C(=O)/C=C/C(F)(F)F)CC3)c3ncnc(N)c23)c1` [Compound 36] the “activation of downstream PLCγ, AKT, and ERK” value [1] was “inhibited the activation of downstream PLCγ, AKT, and ERK in a dose-dependent manner”, the “phosphorylation / activation of FGFR1 in NCI-H1581 cells” value ([2]; different concentrations) was “significantly inhibited the phosphorylation of FGFR1; also recorded: inhibits the activation of FGFR1 and a downstream signaling pathway thereof” and the “activation of downstream PLCγ, AKT, and ERK” value ([2]; NCI-H1581 cells) was “inhibited the activation of downstream PLCγ, AKT, and ERK in a dose-dependent manner”.
